{"source": "patent US11123334B2", "about": "(priority 2018, dated 2021)", "test_system": "rhesus monkeys", "experiment": "Choice between food pellet and intravenous remifentanil infusion", "data": [{"substance": "methocinnamox", "values": [{"measurement": "time until remifentanil (largest dose only) was chosen again", "setting": "after 1.0 mg/kg MCAM, one monkey", "value": 3, "unit": "days"}, {"measurement": "time until sensitivity to remifentanil returned to control", "setting": "after a single injection of MCAM, one monkey", "value": 5, "unit": "days"}, {"measurement": "choice between food and remifentanil after antagonist", "setting": "beginning 24 hours after 1.0 mg/kg MCAM, one monkey (FIG. 5)", "value": "chose exclusively food for the next two sessions"}]}]}
